Experiment: Example 3: blood clearance of 14C-labeled plasmid DNA after IV administration

uptake time, extrapolation of the clearance curve (DNA monocomplex): a couple of minutes
blood clearance of DNA (DNA monocomplex with the named spermine, charge ratio 0.8): fastest clearance
Substance: N^4-(5-(trilactosyllysyllysyl) amidopentyl spermine triacetate [trilactosyl spermine]

Source: patent US20090163436A1, “METHODS FOR DELIVERY OF NUCLEIC ACIDS” (Nucleonics, Inc., priority 2002, published 2009)
